Patent publication US20160158215A1, “TRANSORAL DOSAGE FORMS […] NALOXONE” (published 2016)

Legend:
[1] = used in the predictive modelling; cited from earlier work
[2] = free base; cited from earlier work
[3] = Absorption rate constant (Ka) estimated from in vitro flux data by Wagner-Nelson method; conditions: log slope of cumulative % unabsorbed vs. time, in vitro data of Example 2 over 4 hour period
[4] = Saturation concentration of stock solutions in pH 5 citric acid buffer; conditions: equilibrated overnight @ 37° C.
[5] = test system: pig buccal mucosa; experiment: In vitro permeation (buccal flux) through pig buccal mucosal tissue, modified Franz cell

For `CCC(=O)N(c1ccccc1)C1(COC)CCN(CCc2cccs2)CC1`, the “Alpha (disposition parameter)” value [1] is given as 1.73 h⁻¹, the “Beta (disposition parameter)” value [1] is given as 0.1447 h⁻¹ and the “K21 (disposition parameter)” value [1] is given as 0.2414 h⁻¹. The “V1 (disposition parameter)” value [1] was 144,586.1 milliliters, the “solubility in aqueous fluids” value [2] was “very low solubility” and the “Ka (absorption rate constant) estimated from in vitro flux data” value [3] was 0.555 h⁻¹. For the same compound, the “solution concentration of drug estimated to be at saturation” value [4] was 4.76 mg/mL, the “Mean (±SD) Cumulative Amount Permeated through pig buccal mucosa” value ([5]; Example 2, donor pH 5.0, 37° C., 0.5 h) was 0.0 ± 0.0 ug/cm^2 and the “Mean (±SD) Cumulative Amount Permeated through pig buccal mucosa” value ([5]; Example 2, donor pH 5.0, 37° C., 1 h) was 0.0 ± 0.0 ug/cm^2. The “Mean (±SD) Cumulative Amount Permeated through pig buccal mucosa” value ([5]; Example 2, donor pH 5.0, 37° C., 1.5 h) was 0.5 ± 0.6 ug/cm^2, the “Mean (±SD) Cumulative Amount Permeated through pig buccal mucosa” value ([5]; Example 2, donor pH 5.0, 37° C., 2 h) was 1.6 ± 1.3 ug/cm^2 and the “Mean (±SD) Cumulative Amount Permeated through pig buccal mucosa” value ([5]; Example 2, donor pH 5.0, 37° C., 2.5 h) was 3.7 ± 2.6 ug/cm^2. For the same compound, the “Mean (±SD) Cumulative Amount Permeated through pig buccal mucosa” value ([5]; Example 2, donor pH 5.0, 37° C., 3 h) was 6.5 ± 4.1 ug/cm^2, the “Mean (±SD) Cumulative Amount Permeated through pig buccal mucosa” value ([5]; Example 2, donor pH 5.0, 37° C., 3.5 h) was 9.9 ± 5.7 ug/cm^2 and the “Mean (±SD) Cumulative Amount Permeated through pig buccal mucosa” value ([5]; Example 2, donor pH 5.0, 37° C., 4 h) was 14.2 ± 7.7 ug/cm^2. For the same compound, the “Mean (±SD) Cumulative Amount Permeated through pig buccal mucosa” value ([5]; Example 3 (different tissue samples), donor pH 5.0, 37° C., 0.5 h) was 0.2 ± 0.3 ug/cm^2, the “Mean (±SD) Cumulative Amount Permeated through pig buccal mucosa” value ([5]; Example 3 (different tissue samples), donor pH 5.0, 37° C., 1 h) was 0.2 ± 0.3 ug/cm^2 and the “Mean (±SD) Cumulative Amount Permeated through pig buccal mucosa” value ([5]; Example 3 (different tissue samples), donor pH 5.0, 37° C., 1.5 h) was 0.3 ± 0.3 ug/cm^2. The “Mean (±SD) Cumulative Amount Permeated through pig buccal mucosa” value ([5]; Example 3 (different tissue samples), donor pH 5.0, 37° C., 2 h) was 0.8 ± 0.5 ug/cm^2, the “Mean (±SD) Cumulative Amount Permeated through pig buccal mucosa” value ([5]; Example 3 (different tissue samples), donor pH 5.0, 37° C., 2.5 h) was 1.9 ± 1.2 ug/cm^2 and the “Mean (±SD) Cumulative Amount Permeated through pig buccal mucosa” value ([5]; Example 3 (different tissue samples), donor pH 5.0, 37° C., 3 h) was 3.4 ± 2.0 ug/cm^2. For the same compound, the “Mean (±SD) Cumulative Amount Permeated through pig buccal mucosa” value ([5]; Example 3 (different tissue samples), donor pH 5.0, 37° C., 3.5 h) was 5.6 ± 2.9 ug/cm^2, the “Mean (±SD) Cumulative Amount Permeated through pig buccal mucosa” value ([5]; Example 3 (different tissue samples), donor pH 5.0, 37° C., 4 h) was 8.3 ± 3.9 ug/cm^2 and the “Mean (±SD) Cumulative Amount Permeated through pig buccal mucosa” value ([5]; Example 4 (different tissue samples), donor pH 5.0, 37° C., 0.5 h) was 0.2 ± 0.3 ug/cm^2. For the same compound, the “Mean (±SD) Cumulative Amount Permeated through pig buccal mucosa” value ([5]; Example 4 (different tissue samples), donor pH 5.0, 37° C., 1 h) was 0.6 ± 0.3 ug/cm^2, the “Mean (±SD) Cumulative Amount Permeated through pig buccal mucosa” value ([5]; Example 4 (different tissue samples), donor pH 5.0, 37° C., 1.5 h) was 2.3 ± 1.7 ug/cm^2 and the “Mean (±SD) Cumulative Amount Permeated through pig buccal mucosa” value ([5]; Example 4 (different tissue samples), donor pH 5.0, 37° C., 2 h) was 5.0 ± 3.8 ug/cm^2. The “Mean (±SD) Cumulative Amount Permeated through pig buccal mucosa” value ([5]; Example 4 (different tissue samples), donor pH 5.0, 37° C., 2.5 h) was 9.5 ± 7.2 ug/cm^2, the “Mean (±SD) Cumulative Amount Permeated through pig buccal mucosa” value ([5]; Example 4 (different tissue samples), donor pH 5.0, 37° C., 3 h) was 14.9 ± 10.7 ug/cm^2 and the “Mean (±SD) Cumulative Amount Permeated through pig buccal mucosa” value ([5]; Example 4 (different tissue samples), donor pH 5.0, 37° C., 3.5 h) was 20.6 ± 14.1 ug/cm^2. For the same compound, the “Mean (±SD) Cumulative Amount Permeated through pig buccal mucosa” value ([5]; Example 4 (different tissue samples), donor pH 5.0, 37° C., 4 h) was 25.8 ± 16.7 ug/cm^2, the “Mean (±SD) Cumulative Amount Permeated through pig buccal mucosa” value ([5]; Table 4, donor solution pH 6.5, 37° C., 0.5 h) was 0.0 ± 0.0 ug/cm^2 and the “Mean (±SD) Cumulative Amount Permeated through pig buccal mucosa” value ([5]; Table 4, donor solution pH 6.5, 37° C., 1 h) was 0.0 ± 0.0 ug/cm^2. The “Mean (±SD) Cumulative Amount Permeated through pig buccal mucosa” value ([5]; Table 4, donor solution pH 6.5, 37° C., 1.5 h) was 0.1 ± 0.2 ug/cm^2, the “Mean (±SD) Cumulative Amount Permeated through pig buccal mucosa” value ([5]; Table 4, donor solution pH 6.5, 37° C., 2 h) was 0.3 ± 0.6 ug/cm^2 and the “Mean (±SD) Cumulative Amount Permeated through pig buccal mucosa” value ([5]; Table 4, donor solution pH 6.5, 37° C., 2.5 h) was 0.8 ± 1.1 ug/cm^2. For the same compound, the “Mean (±SD) Cumulative Amount Permeated through pig buccal mucosa” value ([5]; Table 4, donor solution pH 6.5, 37° C., 3 h) was 1.3 ± 1.8 ug/cm^2, the “Mean (±SD) Cumulative Amount Permeated through pig buccal mucosa” value ([5]; Table 4, donor solution pH 6.5, 37° C., 3.5 h) was 2.1 ± 2.5 ug/cm^2 and the “Mean (±SD) Cumulative Amount Permeated through pig buccal mucosa” value ([5]; Table 4, donor solution pH 6.5, 37° C., 4 h) was 3.0 ± 3.2 ug/cm^2.

With `CCC(=O)N(c1ccccc1)C1CCN(CCc2ccccc2)CC1` the “Ka (absorption rate constant) estimated from in vitro flux data” value [3] was 0.553 h⁻¹ and the “solution concentration of drug estimated to be at saturation” value [4] was 17.35 mg/mL.

This is a selection: effects in other tests are not listed, and their absence says nothing.
